Experimental data published in patent US20090227518A1, “COMPOSITIONS AND METHODS FOR TREATING ACTIN-MEDIATED MEDICAL CONDITIONS” (The Regents of the University of Colorado, priority 2005, published 2009).

Experiments:
[1] = tested on: islets; test: Streptozotocin (STZ) toxicity in vivo; design: species or system mice; details: 48 hours after STZ injection; AAT 2 mg one day before, same day and a day after STZ
Experimental: To test the effect of AAT on islets in vivo, STZ toxicity was evaluated. AAT (2 mg) was administered one day before, on the same day and a day after STZ injection. […] Immune cell content of freshly isolated islets was evaluated by FACS analysis. Islets contain CD45+ cells that are also positive for the monocytic/granulocytic markers GR1 and F4/80.
To assess the possibility that islet protection occurred via inhibition of release of membrane TNFα in vivo, TACE inhibitor, p75 TNFα receptor or AAT were introduced to mice prior to STZ injection.

[2] = tested on: islet allograft; test: Islet allograft transplantation in streptozotocin-induced hyperglycemic mice; type: in vivo
Experimental: 5-6 weeks old C57BL/6 mice were treated intraperitoneally (i.p.) with 225 mg/kg Streptozotocin (STZ) (Sigma). Mice with established hyperglycemia were used at least 5 days after STZ administration. Islets were isolated from DBA/2 mice on day of transplantation, or 24 hours before in vitro assays, by enzymatic digestion of pancreatic tissue. Briefly, mice were anesthetized with i.p. ketamine (50 mg/kg, Vedco Inc.) and xylazine (10 mg/kg, Vedco Inc.) Each pancreas was inflated with 3.5 ml cold collagenase (1 mg/ml, type XI, Sigma), excised and immersed for 40 minutes at 37° C. in water bath. Pancreata were gently vortexed and filtered through 500-micron metal sieve. The pellet was washed twice in cold HBSS containing 0.5% BSA (Sigma) and reconstituted in RPMI-1640 (Cellgro, Mediatech) supplemented with 10% FCS (Cellgro), 50 IU/ml Penicillin (Cellgro) and 50 μg/ml streptomycin (Cellgro). Islets were collected on a 100-micron nylon cell strainer (BD Falcon), released into a petri dish by rinsing with HBSS (Cellgro, Mediatech) and 0.5% BSA (Sigma) and hand picked under a stereomicroscope. […]
Islets isolated from DBA/2 mice (H-2d) were transplanted under the left renal capsule of streptozotocin (STZ-) induced hyperglycemic C57BL/6 mice (H-2b). Blood glucose was measured three times a week. […]

[3] = tested on: G-actin; test: Pyrenated G-actin polymerization with actin polymerization buffer; type: biochemical; details: concentrations similar to AAT (0.69, 0.34, 0.17 mg/ml)
Experimental: An actin polymerization buffer was added to pyrenated G-actin (control), and the formation of F-actin was followed over a period of 60 minutes. As shown in FIG. 9A-9C, AAT concentrations of 0.69 mg/ml (FIG. 9A), 0.34 mg/ml (FIG. 9B), and 0.17 mg/ml (FIG. 9C) were used.

Which results are given for “human albumin: human albumin used as control protein”?
insulin-producing cells per islet [1]: 12.8%±2.3; islet allograft outcome ([2]; 6 mg i.p. one day before transplantation and every 3 days thereafter): graft rejection comparable to that of untreated recipient mice; cellular infiltration into grafted islets (Hematoxilin and Eosin) ([2]; grafts removed on day 7): more massive; inhibition of actin polymerization [3]: no inhibition
